In patent US20220016251A1, “LYMPHATIC MEDIATED TRANSPORT-BASED TRIGLYCERIDE PRODRUG, AND PREPARATION METHOD THEREFOR” (SHENYANG PHARMACEUTICAL UNIVERSITY, priority 2019, published 2022):

Details: rat
Source text: The intestinal permeability of a docetaxel-triglyceride prodrug is investigated by in vivo intestinal perfusion in rats. […] In order to investigate the effect of intestinal pancreatic lipase digestion on the absorption of the prodrug, a pancreatic lipase inhibitor orlistat is administrated half an hour in advance.

permeability coefficient Ka, increase compared with docetaxel solution: 1.73 times
Substance: Docetaxel-C5(Et)-Triglyceride Prodrug [DTX-5C(Et)-TG]
